System: HL-7702
Assay: MTT test on human normal hepatocytes HL-7702
Type: cell-based
Conditions: human normal hepatocytes HL-7702, MTT, 48 h

4β-S-(3-phenyl-1,3,4-thiadiazol-2(3H)thione potassium salt-5)-4′-demethylepipodophyllotoxin [Compound 26]
IC50: 43.4 ± 4 µM

From patent US20200216449A1, “4-Sulfur Substituted Podophyllotoxin Derivative and Preparation Method Therefor and Use Thereof” (priority 2017, published 2020)
